Results from PMC5862788 (Antiviral therapy, 2018).
Where “and” joins values, the source holds several entries; their conditions need not be identical. Equal values may be shown once.

Test system: HCV
Settings: in vivo

CS(=O)(=O)Nc1ccc2c(c1)S(=O)(=O)N=C(C1=C(O)[C@@H]3[C@H]4CC[C@H](C4)[C@@H]3N(Cc3ccc(F)cc3)C1=O)N2 [setrobuvir]
δ (loss rate of infected cells): 0.093 d^−1 and 0.0933 (52) d^−1
